Values of other authors, collected in patent publication US9603878B2, “Probiotic and prebiotic compositions, and methods of use thereof for treatment and prevention of graft versus host disease” (Evelo Biosciences, Inc., priority 2014, dated 2017).

Settings: Pathogen/Pathobiont status of the OTU; Table 1, See, e.g., WO 2014/121304; cited from earlier work

Bacteroides fragilis
Pathogen Status: N
